Consider 1 compound from patent US20120157379A1, “Gastric Inhibitory Peptide Variants and Their Uses” (priority 2009, published 2012).

For series [1] the following is noted: administered intravenously in normal subjects and diabetic patients; cited from earlier work.
Series [2] can be described thus: Resistance to serum degradation: peptides incubated with human serum at 37 C, then tested for receptor activation. Here is the method:
Vector, transfection, and receptor-activation assay. […] The treated peptides were frozen at −80 C before testing with transfected cells. Receptor-activation activities were assayed based on cAMP production in transfected cells, and were performed as described44. The receptor-activation results were analyzed using the GraphPad Prism 5 package.

Molecules are shown by their SMILES.

Turning to `CC[C@H](C)[C@H](NC(=O)[C@H](CO)NC(=O)[C@H](Cc1ccc(O)cc1)NC(=O)[C@H](CC(=O)O)NC(=O)[C@H](CO)NC(=O)[C@@H](NC(=O)[C@H](Cc1ccccc1)NC(=O)[C@@H](NC(=O)CNC(=O)[C@H](CCC(=O)O)NC(=O)[C@H](C)NC(=O)[C@@H](N)Cc1ccc(O)cc1)[C@@H](C)O)[C@@H](C)CC)C(=O)N[C@@H](C)C(=O)N[C@@H](CCSC)C(=O)N[C@@H](CC(=O)O)C(=O)N[C@@H](CCCCN)C(=O)N[C@H](C(=O)N[C@@H](Cc1c[nH]cn1)C(=O)N[C@@H](CCC(N)=O)C(=O)N[C@@H](CCC(N)=O)C(=O)N[C@@H](CC(=O)O)C(=O)N[C@@H](Cc1ccccc1)C(=O)N[C@H](C(=O)N[C@@H](CC(N)=O)C(=O)N[C@@H](Cc1c[nH]c2ccccc12)C(=O)N[C@@H](CC(C)C)C(=O)N[C@@H](CC(C)C)C(=O)N[C@@H](C)C(=O)N[C@@H](CCC(N)=O)C(=O)N[C@@H](CCCCN)C(=O)NCC(=O)N[C@@H](CCCCN)C(=O)N[C@@H](CCCCN)C(=O)N[C@@H](CC(N)=O)C(=O)N[C@@H](CC(=O)O)C(=O)N[C@@H](Cc1c[nH]c2ccccc12)C(=O)N[C@@H](CCCCN)C(=O)N[C@@H](Cc1c[nH]cn1)C(=O)N[C@@H](CC(N)=O)C(=O)N[C@H](C(=O)N[C@H](C(=O)N[C@@H](CCC(N)=O)C(=O)O)[C@@H](C)O)[C@@H](C)CC)C(C)C)[C@@H](C)CC` [GIP, Gastric inhibitory polypeptide, reference compound], in series [1], the “plasma half-life (t1/2)” value was 5 to 7 min. Also, the “capability to stimulate cAMP production after serum incubation as compared to GIP55G and GIP55S” value in series [2] (after human serum incubation) is “significantly reduced”. Also, the “slope of changes in bioactivity (EC50 vs length of incubation) compared with GIP55G” value in series [2] (pooled human serum, P=0.0023) is given as “significantly steeper”.
